Ki data for 1 compound are collected here from BindingDB's records for doi:10.1021/jm030825u (Universit&#224, 2003).

The chains behind the UniProt entries cited, without tags or fusion partners.
UniProt P35368, whole entry: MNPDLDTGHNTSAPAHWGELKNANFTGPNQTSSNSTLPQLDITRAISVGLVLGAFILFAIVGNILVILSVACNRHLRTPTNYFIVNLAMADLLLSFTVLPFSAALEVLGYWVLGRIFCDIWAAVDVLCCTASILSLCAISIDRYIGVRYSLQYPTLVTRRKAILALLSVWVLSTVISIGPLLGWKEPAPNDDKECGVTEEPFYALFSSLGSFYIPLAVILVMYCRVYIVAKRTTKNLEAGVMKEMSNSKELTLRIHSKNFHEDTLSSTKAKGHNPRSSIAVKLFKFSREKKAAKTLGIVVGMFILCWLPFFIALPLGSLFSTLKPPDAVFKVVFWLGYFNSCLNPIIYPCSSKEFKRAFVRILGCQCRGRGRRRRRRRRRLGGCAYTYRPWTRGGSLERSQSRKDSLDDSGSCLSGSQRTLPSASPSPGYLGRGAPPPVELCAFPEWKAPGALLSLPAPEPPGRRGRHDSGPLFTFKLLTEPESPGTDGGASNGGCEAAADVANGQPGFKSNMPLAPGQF

As a reminder, the Ki is a dissociation constant, usually derived from enzyme kinetics or from competition with a known ligand. The low end stands for tighter binding, the high end for weaker binding.

Structures are written as SMILES.

The test has as its target Alpha-1B adrenergic receptor (Homo sapiens, UniProt P35368). The experiment in a line: Inhibition of [3H]-prazosin binding to cloned human Alpha-1B adrenergic receptor in CHO cells (chinese hamster ovary cells).

In turn, `COc1ccccc1N1CCN(CCCNC(=O)c2cccc3c(=O)c(C)c(-c4ccccc4)oc23)CC1` [3-Methyl-4-oxo-2-phenyl-4H-chromene-8-carboxylic acid {3-[4-(2-methoxy-phenyl)-piperazin-1-yl]-propyl}-amide] registered a Ki of 3.9 nM.
